# Binding of CDR-mutated scFvs to a peptide of the spike HR2 region

Antigen: PDVDLGDISGINAS, a 14-residue peptide of the SARS-CoV-2 spike HR2 region.

Each scFv is VH, a 15-residue (Gly4Ser)3 linker, VL, as in the parent Ab-95, and differs from it in the CDRs of the light chain only.
VH: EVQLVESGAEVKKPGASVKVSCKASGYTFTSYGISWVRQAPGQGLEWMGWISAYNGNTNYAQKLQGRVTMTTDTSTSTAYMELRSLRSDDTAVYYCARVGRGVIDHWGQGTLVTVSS
VL: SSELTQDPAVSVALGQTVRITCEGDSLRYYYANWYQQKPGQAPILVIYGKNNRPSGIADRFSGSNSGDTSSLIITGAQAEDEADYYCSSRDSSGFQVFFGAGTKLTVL

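The parent was found by panning a naive human phage display library on the peptide. The library (AAYL52) carries one to three amino acid substitutions per variant, with no insertions or deletions. Affinity was read by AlphaSeq, a pooled yeast mating assay with surface-displayed partners. Pairs that bind mate more often; barcode pairs of the diploids are counted by sequencing. A regression on co-assayed BCL2-family reference pairs converts the normalised counts of each replicate to an apparent Kd. Each pool was mated in three replicate cultures.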

Each variant is given by its three light chain CDRs, as the data file delimits them; those of the parent are EGDSLRYYYAN, GKNNRPS, SSRDSSGFQVF.
Values are log10 of the apparent Kd in nM; lower means stronger binding.
A pair that was not seen in that replicate is written "n.d."; this usually means weak binding, but a binder can also be missed.

CDR-L1,CDR-L2,CDR-L3,log10 Kd (nM) by replicate,control signals
EGDSLRYYYAN,GKINRPS,SSDDSSGFQAF,n.d. n.d. n.d.,4/9 (3.25)
EGDSLRYYYAN,GKNNRPS,SSRDSAGTQTF,3.12 1.89 2.83,0/9
ELDSIRYYYAE,GKNNRPS,SSRDSSGFQVF,4.31 4.23 n.d.,6/9 (4.19)
EGDSLRYYSAN,GKGNRPS,SSRDSSGFQVF,1.41 1.13 0.89,4/9 (3.80)
EGDSLPYYYAN,GKLNRPS,SSRDSEGFQVF,n.d. n.d. 3.51,5/9 (3.66)
EGDSLRYYMAN,GKNRRPS,SSRDSSGFQSF,n.d. 4.01 3.27,2/9 (3.66)
EGDELRYYYAN,GKNSRPS,SSRKSSGFQVF,4.42 n.d. n.d.,2/9 (4.12)
EGDSLRYYYAN,GKANIPS,SPRDSSGFQVF,5.13 n.d. 4.37,3/9 (3.23)
EGDSLRYYYAN,GKNNRPS,PERDSSGFQVF,4.05 4.07 n.d.,0/9
EGDSLYYYYAN,FKNNRPS,SSRDSSLFQVF,4.81 5.66 n.d.,2/9 (4.38)
EGDSYRYYYAN,GKNNRPS,SSEDSGGFQVF,n.d. 3.49 n.d.,2/9 (3.33)
QGDSLRYYYAN,GKNKRPS,SSRDSSGFQVY,n.d. n.d. n.d.,1/9 (3.65)
EGDSYRMYYAN,GKNNRPS,SSRDSSGWQVF,n.d. 3.96 n.d.,6/9 (4.06)
KGDSLRYYYAN,GKNNRPS,SHRDSSMFQVF,n.d. 3.48 n.d.,3/9 (4.58)
EGDHLRYYYAN,GKNNRPS,SSRDKSGIQVF,n.d. 3.02 2.76,2/9 (3.26)
EGDSLRYYYAN,GKNNRPS,SSRMSSGIQSF,2.20 3.04 2.14,0/9
EGDSLRYYYIN,GKNNRPS,SSRRSSGFCVF,3.23 n.d. n.d.,3/9 (4.29)
RGDSLRYYYAN,GKVNRPS,SSRDKSGFQVF,2.99 2.83 3.81,2/9 (3.77)
EGESLRQYYAN,GKNNRPS,SSRDSSGFQVF,1.97 1.83 2.92,3/9 (3.28)
EGDFLRYHYAN,GKNNRPS,SSRDSSGFQVV,2.47 2.70 1.83,0/9
EGDSVRYYRAN,GKNNRPS,SSRDKSGFQVF,2.91 3.14 3.69,5/9 (4.20)
EGSSLRYYIAN,GKNNRPS,SSRDSSGFQVF,2.21 1.98 3.13,1/9 (3.34)
EGDSLRGYYAN,GKNNRPL,SSRDSSGFQVF,1.28 1.40 0.86,3/9 (4.10)
EGDSLEYYYAN,GKNNRAS,SSRDSSGFQVF,1.99 1.90 1.31,4/9 (3.70)
EGDSLRYCYAN,MKNNRPS,WSRDSSGFQVF,3.43 n.d. 4.44,2/9 (3.93)
IGDSLRYSYAN,GKNNRPS,SSRDSSGVQVF,1.34 1.31 0.68,1/9 (5.21)
DGDSLRYYYAV,GKNNRPS,SSRDSSGFQVF,3.34 4.03 n.d.,5/9 (3.77)
EGDSLRYYYAN,GKKNRPS,SSRDSEGFQQF,n.d. 4.15 4.18,1/9 (3.31)
EGDSLRYMYAN,GKNNRPS,SSRDSSCRQVF,2.50 2.29 2.37,3/9 (2.77)
EGDSLRYYYAN,GKNNRPS,SSRDQSGFQVF,2.24 2.09 1.92,2/9 (3.79)
EGDSLRKYYAN,GKNNRPG,SSYDSSGFQVF,3.54 3.24 n.d.,2/9 (3.79)
EGDSLRFYYAN,GKNDRPS,SSRDSSGFQVN,3.31 3.71 n.d.,0/9
EGDSLRYYYAN,GWNNRPM,SSRDSSGFQRF,3.58 n.d. 3.76,1/9 (2.90)
EGDSLIYYYAN,NKNNRPS,SSLDSSGFQVF,2.90 2.79 2.74,2/9 (3.60)
EADSVRYYYAN,CKNNRPS,SSRDSSGFQVF,3.98 n.d. n.d.,5/9 (3.21)
EGDTLRYYYAN,GKNNRPD,SSRISSGFQVF,2.54 1.59 1.37,1/9 (4.78)
EGDSLRYYYWN,GKNNRPS,SSRDSSGFQVF,2.44 3.00 2.36,3/9 (4.32)
EGDSLRYPYAN,GKNNRRS,SSRDHSGFQVF,5.13 4.07 n.d.,0/9
FGDSLRYYYAN,GKNNRPI,SSRDSSGWQVF,n.d. n.d. 2.44,2/9 (4.72)
EGRSLRYYYFN,GKHNRPS,SSRDSSGFQVF,4.34 4.79 n.d.,1/9 (4.20)
EGMSLRYYYAN,GKNNRPS,MSRDSSFFQVF,3.67 3.89 n.d.,0/9

The 3 strongest on average among those seen in every replicate, once more:

CDR-L1,CDR-L2,CDR-L3,log10 Kd (nM) by replicate,control signals
IGDSLRYSYAN,GKNNRPS,SSRDSSGVQVF,1.34 1.31 0.68,1/9 (5.21)
EGDSLRYYSAN,GKGNRPS,SSRDSSGFQVF,1.41 1.13 0.89,4/9 (3.80)
EGDSLRGYYAN,GKNNRPL,SSRDSSGFQVF,1.28 1.40 0.86,3/9 (4.10)

Parent in this assay: reference entry 2.31, copy in this library 2.25.
Empty control strains, which show no peptide, gave a signal in 28% of pairings with library AAYL52; the median was 3.91 and 95% of these signals were weaker than 2.90. No background was subtracted. Also given: how often the same scFv was detected with the empty control strains, with their mean in brackets.

Values reported by Engelhart et al. 2022, doi:10.1038/s41597-022-01779-4 (FLAb copy).